Values of other authors as cited in patent US20060172019A1 (priority 2003, published 2006).

Protein sequences, listed by entry. Tags and fused reporters are not part of them.
UniProt P34972, whole entry: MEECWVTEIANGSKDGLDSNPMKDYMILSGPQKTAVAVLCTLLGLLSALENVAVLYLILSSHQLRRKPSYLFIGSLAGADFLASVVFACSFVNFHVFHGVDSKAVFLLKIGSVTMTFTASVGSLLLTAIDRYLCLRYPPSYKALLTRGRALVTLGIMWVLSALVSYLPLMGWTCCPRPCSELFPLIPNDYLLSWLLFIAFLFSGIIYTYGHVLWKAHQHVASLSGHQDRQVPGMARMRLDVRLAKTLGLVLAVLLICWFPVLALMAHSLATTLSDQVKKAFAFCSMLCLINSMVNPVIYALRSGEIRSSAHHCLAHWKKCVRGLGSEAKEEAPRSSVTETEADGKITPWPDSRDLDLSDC

Molecular target: CB2 receptor (Homo sapiens, UniProt P34972)
Details: cited from earlier work

## Cc1ccc(Cn2nc(C(=O)NC3C4(C)CCC(C4)C3(C)C)cc2-c2ccc(Cl)c(C)c2)cc1 [SR144528, 5-(4-Chloro-3-methyl-phenyl)-1-(4-methyl-benzyl)-1H-pyrazole-3-carboxylic acid ((1S)-1,3,3-trimethylbicyclo[2.2.1]hept-2endo,exo-yl)-amide]
Table 1
  Classification CB2: Inverse agonist
Table 2
  CB receptor function (CB2): CB2 inverse agonist
